Reference: paper PMC10552892, “Ebselen oxide and derivatives are new allosteric HER2 inhibitors for HER2‐positive cancers” (Molecular Oncology, 2023)

Tests used:
Type in all cases: cell-based, human
SKBR3 = experiment: Incucyte proliferation, single agents and combinations, SKBR3; conditions: SKBR3, Incucyte 4 days; ebselen oxide 10 μM, lapatinib 10 nM, trastuzumab 10 μg·mL−1, alone or combined
BT474 = experiment: Incucyte proliferation, single agents and combinations, BT474; conditions: BT474, Incucyte 4 days; ebselen oxide 10 μM, lapatinib 10 nM, trastuzumab 10 μg·mL−1, alone or combined
NCI-N87 [1] = experiment: Incucyte proliferation, single agents and combinations, NCI-N87; conditions: NCI-N87, Incucyte 4 days; ebselen oxide 10 μM, lapatinib 10 nM, trastuzumab 10 μg·mL−1, alone or combined
NCI-N87 [2] = experiment: Anchorage-independent growth (spheroid assay, ULA plates), NCI-N87; conditions: ebselen oxide 10 μM, lapatinib 10 nM, trastuzumab 10 μg·mL−1, alone or combined
Procedure: 5.10^3 cells/24‐well were seeded in a complete medium in ULA plates (Corning® Costar® (Corning, NY, USA) C LS3473‐24EA) in the presence of indicated compounds. Spheroids were imaged 6–8 days later with a phase‐contrast microscope, and their areas were measured using IMAGEJ software.

## trastuzumab
SKBR3
  Reduction/inhibition of cell proliferation: 38%
BT474
  Reduction/inhibition of cell proliferation: 35%
NCI-N87 [1]
  Reduction/inhibition of cell proliferation: 34%
NCI-N87 [2]
  Reduction of anchorage-independent growth (spheroid assay): 12%
